Our source for the inhibition values is PubChem BioAssay AID602440 (Sanford-Burnham Center for Chemical Genomics, 2012).

The chains behind the UniProt entries cited, without tags or fusion partners.
UniProt Q96LD8, whole entry: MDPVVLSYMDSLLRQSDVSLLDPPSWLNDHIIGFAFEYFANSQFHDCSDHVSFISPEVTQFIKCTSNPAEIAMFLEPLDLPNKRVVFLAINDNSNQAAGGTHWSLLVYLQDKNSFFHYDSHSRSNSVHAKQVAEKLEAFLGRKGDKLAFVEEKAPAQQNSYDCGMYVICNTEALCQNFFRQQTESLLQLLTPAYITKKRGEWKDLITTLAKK

This is a selection; strong and weak results do not stand in their true shares. The source made the active and inactive calls. No stated cut-off is given here; in the data, active means inhibition mostly above about 40% (no sharp cut-off); inactive means mostly below about 27%.

For the assay, the target named is Sentrin-specific protease 8 (Homo sapiens) (UniProt Q96LD8). The assay can be described thus: blockers of SENP8 deneddylase activity – biochemical, fluorescence, Nedd8 protein substrate, uHTS, primary screen (AID 602440). The note with it: recombinant SENP8, Nedd8 substrate fluorescence; at 20 µM; active compounds read high.
One may read the inhibition as the change of the read-out against control, counted positive when it falls. For the compound `COc1ccccc1OP(C)(=O)Nc1cccc(Br)c1` (stereo unspecified), the inhibition was inactive: 18.1%.
